Data: US7534766B2, “Glucuronide metabolites and epimers thereof of tigecycline” (Wyeth, priority 2004, dated 2009)

Assay: LC/MS detection of tigecycline and its metabolites in humans, dogs and/or rats
Settings: LC/MS of human serum, urine, feces and rat and dog plasma and urine

Species in which detected: R, D, H
Substance: Hydroxy Tigecycline
